Data reported in patent US20100099575A1 (MODPRO, published 2010).

Columns and labels:
[1] = molecular target: T1, human carbonic anhydrase II (human, UniProt P00918 2-260); test: fluorescence titration of 1 µM KE2-PL with 5 nM-50 µM HCAII, fit to a bimolecular model
[2] = molecular target: T1, human carbonic anhydrase II; test: surface plasmon resonance, HCAII immobilized, KE2-PL in solution at 40 nM to 10 µM, steady state, 1:1 model

Kd [1]: 20 nM
Kd [2]: 80 nM
B1: KE2-PL (KE2 with the dansyl fluorescent probe at Lys15 and the benzenesulfonamide ligand with aliphatic spacer, from active ester Id, at Lys34) (peptide)
chain: NAADLEAAIRHLAEKLAARGPVDAAQLAEQLAKKFEAFARAG
modifications: dansyl on the side chain of Lys15; 4-carboxybenzenesulfonamide coupled through a 6-aminohexanoic acid spacer (from active ester Id) on the side chain of Lys34
notes: Synthetic 42-residue helix-loop-helix peptide
